Data published in patent publication EP0336356A2, “Derivatives of tryptophan as CCK antagonists” (ABBOTT LABORATORIES, priority 1988, dated 1989).

By UniProt entry, the sequences of proteins in these tests, tags left out.
UniProt Q63931, whole entry: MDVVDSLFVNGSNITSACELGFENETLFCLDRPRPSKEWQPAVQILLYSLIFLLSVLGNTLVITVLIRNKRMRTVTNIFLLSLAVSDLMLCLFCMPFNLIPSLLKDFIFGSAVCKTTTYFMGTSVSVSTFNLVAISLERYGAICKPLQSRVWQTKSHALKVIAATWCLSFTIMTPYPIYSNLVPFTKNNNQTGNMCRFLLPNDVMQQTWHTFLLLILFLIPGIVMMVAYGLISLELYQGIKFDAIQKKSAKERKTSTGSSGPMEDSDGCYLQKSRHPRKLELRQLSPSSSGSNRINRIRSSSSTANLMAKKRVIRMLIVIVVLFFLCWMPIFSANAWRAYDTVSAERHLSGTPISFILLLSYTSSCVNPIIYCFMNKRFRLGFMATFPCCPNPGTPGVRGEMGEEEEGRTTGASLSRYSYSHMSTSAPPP

Biological target: T1, CCK receptors (Cavia porcellus, UniProt Q63931)
T1 construct: cortex and pancreas were removed and rinsed with ice-cold saline; from tissue; host or cells: guinea pig pancreas membranes
Assay: [125I]BH-CCK8 radioligand binding, guinea pig pancreatic membranes
Settings: 37°C for 30 min, read-out: IC₅₀ (nM) [¹²⁵I]-BH-CCK₈ Pancreas

Row | SMILES | IC50 [nM]
1 | CCCCCN(CCCCC)C(=O)C(Cc1c[nH]c2ccc(OCc3ccccc3)cc12)NC(=O)c1cnc2ccccc2c1 (racemic) [Example 53, N-(3′-Quinolylcarbonyl)-R,S-5-benzyloxytryptophan-di-n-pentylamide] | 67
2 | O=C(N[C@H](Cc1c[nH]c2ccccc12)C(=O)NCc1ccccc1)c1cnc2ccccc2c1 [Example 7, N-(3′-Quinolylcarbonyl)-R-Tryptophan-benzylamide] | 350
